Earlier results as cited in patent US6716451B1, “Formulation and delivery method to enhance antioxidant potency of vitamin E” (Soft Gel Technologies, Inc., priority 1999, dated 2004).

Details: daily doses of 100 to 500 mg

For Vitamin E, which detrimental effects is on record?
The detrimental effects was “No evidence of detrimental effects”.
